Source: patent publication US20240240224A1, “FLUORESCENT D-TYPE AMINO ACID METABOLISM MARKER-BASED METHOD FOR DETECTING ANTIBACTERIAL DRUG SENSITIVITY TEST” (priority 2020, published 2024)

What was measured:
Conditions in all cases: unit assumed
[1] = system: E. coli Ec13; test: BMD susceptibility test; format: cell-based, Escherichia coli
[2] = system: E. coli Ec13; test: FaAST (FDAA metabolic labeling); format: cell-based, Escherichia coli
Procedure: (§1) The specific experimental steps are as follows: • 1. Take the colony to be tested that has been cultured overnight on the plate and fully mix it in normal saline to make a uniform bacterial solution. Dilute it into CAMHB medium to make a bacterial solution with OD600=0.05. • 2. Add 45 μl antibiotic solutions to be tested of different concentrations to 96-well plates (see Table 3 for antibiotic concentration gradient settings). • 3. Add 50 μl of bacterial solution prepared in Step 1 to the 96-well plate and mix well. • 4.5 μl of 10 mM Cy5-DAA probe was added to each well (final concentration was 0.15 mM, and its structure was shown in FIG. 1). After mixing, the probe was incubated for 2 hours in the dark. • 5. After dilution with 200 μl PBS solution, the fluorescence intensity of each sample was detected by flow cytometry.

[3] = system: K. pneumoniae Kp9; test: BMD susceptibility test; format: cell-based, Klebsiella pneumoniae
[4] = system: K. pneumoniae Kp9; test: FaAST (FDAA metabolic labeling); format: cell-based, Klebsiella pneumoniae
Procedure: as §1

[5] = system: E. faecium Ef28; test: BMD susceptibility test; format: cell-based, Enterococcus faecium
[6] = system: E. faecium Ef28; test: FaAST (FDAA metabolic labeling method); format: cell-based, Enterococcus faecium
Procedure: Take the colony to be tested that has been cultured overnight on the plate and fully mix it in normal saline to make a uniform bacterial solution. Dilute it into Cation-Adjusted Mueller Hinton Broth (CAMHB) culture medium to make a bacterial solution with OD600=0.05. • 2. Add 45 μl antibiotic solutions of different concentrations to 96-well plates (see Table 1 for antibiotic concentration gradient settings). • 3. Add 50 μl of the bacterial solution prepared in step 1 to the 96-well plate and mix well. • 4. Add 5 μl of 10 mM Cy5-DAA probe (final concentration 0.15 mM, see FIG. 1 for its structure) into each well, mix well, and cultivate in dark for 2 hours. • 5. Add 200 μl After PBS solution is diluted, the fluorescence intensity of each sample is detected by flow cytometry. […] The MIC (minimum inhibitory concentration) can be obtained by referring to this curve.

[7] = system: E. faecium Ef26; test: BMD susceptibility test; format: cell-based, Enterococcus faecium

For CO/N=C(\C(=O)N[C@@H]1C(=O)N2C(C(=O)O)=C(COC(N)=O)CS[C@H]12)c1ccco1 [Cefuroxime], the BMD (MIC) [1] was > 256 µg/mL, the FaAST (MIC) [2] was > 256 µg/mL and the BMD (MIC) [3] was > 256 µg/mL. For the same molecule, the FaAST (MIC) [4] was > 256 µg/mL.
In the case of CC1(C)S[C@@H]2[C@H](NC(=O)Cc3ccccc3)C(=O)N2[C@H]1C(=O)O [Penicillin G, penicillin G], the BMD (MIC) [5] is reported as > 256 µg/mL and the FaAST (MIC) [6] is reported as 256 µg/mL.
With C[C@H]1COc2c(N3CCN(C)CC3)c(F)cc3c(=O)c(C(=O)O)cn1c23 [Levofloxacin, levofloxacin] the BMD (MIC) [7] was > 256 µg/mL and the BMD (MIC) [5] was > 256 µg/mL.
